Here are results for one compound from PMC2792720 (PLoS ONE, 2009).

Protein sequences, listed by entry. Tags and fused reporters are not part of them.
UniProt P50637, whole entry: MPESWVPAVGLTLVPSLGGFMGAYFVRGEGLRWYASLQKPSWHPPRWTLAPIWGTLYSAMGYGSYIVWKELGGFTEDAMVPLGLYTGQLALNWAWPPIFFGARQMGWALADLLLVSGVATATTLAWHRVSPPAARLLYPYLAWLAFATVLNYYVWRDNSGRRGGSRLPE

As a reminder, the EC50 is the midpoint of the concentration-response curve.

The assay deals with TSPO (Mus musculus, UniProt P50637). Briefly: Filtration radioligand binding assay, [^3H]-PK 11195 binding to DBT cell homogenates. The conditions noted are these: read-out: EC50, competition for [^3H]-PK 11195 binding.

Consider `COc1ccc(NCCCCCCN)c(CN(C(C)=O)c2cc(F)ccc2Oc2ccccc2)c1`, for which the EC50 is 114 nM.
